Experimental data taken from patent US9717742B2, “Oxysterol analogue OXY133 induces osteogenesis and hedgehog signaling and inhibits adipogenesis” (The Regents of the University of California, priority 2012, dated 2017).

Tested on: Lewis rats
Test: Posterolateral intertransverse process spinal fusion at L4-L5 in rats
Assay type: in vivo, rat
Procedure: Thirty-eight 8-week-old male Lewis rats were purchased from Charles River Laboratories (Wilmington, Mass.) and were maintained and housed at the UCLA vivarium in accordance with regulations set forth by the UCLA Office of Protection of Research Subjects. The study was performed under a protocol approved by the UCLA Animal Research Committee (ARC). All animals were euthanized using a standard CO2 chamber 8 weeks after the spinal fusion procedure, and their spines were excised and stored in 40% ethyl alcohol.
Animals were pre-medicated with sustained release buprenorphine thirty minutes prior to surgery and anesthetized with 2% isoflurane administered in oxygen (1 L/min). The surgical site was shaved and disinfected with Betadine and 70% ethanol. Posterolateral intertransverse process spinal fusion at L4-L5 was performed as in prior studies (21, 22). The L6 vertebral body was identified using the iliac crest as a landmark. A 4-cm longitudinal midline incision was made through the skin and subcutaneous tissue over L4-L5 down to the lumbodorsal fascia. A 2-cm longitudinal paramedial incision was then made in the paraspinal muscles bilaterally to expose the transverse processes of L4-L5, which were decorticated with a high-speed burr. The surgical site was then irrigated with sterile saline, and 5 mm×5 mm×13 mm pieces of collagen sponge (Helistat, Integra Life Sciences) containing dimethyl sulfoxide (DMSO) control, rhBMP-2, or Oxy133 were placed bilaterally, with each implant spanning the transverse processes. The implants were then covered with the overlying paraspinal muscles and the lumbodorsal fascia and skin were closed with 4-0 Prolene sutures (Ethicon, Inc., Somerville, N.J.). Animals were allowed to ambulate, eat, and drink ad libitum immediately after surgery.
Posteroanterior radiographs of the lumbar spine were taken on each animal at 4, 6, and 8 weeks after surgery using a Faxitron LX60 cabinet radiography system and evaluated blindly by two independent observers employing the following standardized scale: 0, no fusion; 1, unilateral fusion; and 2, complete bilateral fusion. The scores from the observers were added together and only a score of 4 was considered as complete fusion.
Eight weeks after surgery, animals were euthanized and the spines were surgically removed and evaluated by two blinded independent observers for motion between levels. Nonunion was recorded if motion was observed between the facets or transverse processes on either side. Complete fusion was recorded if no motion was observed bilaterally. Spines were scored as either fused or not fused. Unanimous agreement was required to consider complete fusion.
Each removed spine was analyzed by high resolution micro-computed tomography (micro-CT), using a SkyScan 1172 scanner (SkyScan, Belgium) with a voxel isotropic resolution of 20 μm and an X-ray energy of 55 kVp and […] to further assess the fusion rate and observe the fusion mass as we have previously reported (15). Three hundred and sixty projections were acquired over an angular range of 180° with steps of 0.5 with an exposure time of 220 msec/slice. Five frames were averaged at each rotation step to get better signal to noise ratio. A 0.5 mm aluminum filter was used to narrow down the X-ray beam frequency in order to minimize beam hardening artifact. Virtual image slices were reconstructed using the cone-beam reconstruction software version 2.6 based on the Feldkamp algorithm (SkyScan). These settings produced serial cross-sectional 1024×1024 pixel images. Sample re-orientation and 2D visualization were performed using DataViewer (SkyScan). 3D visualization was performed using Dolphin Imaging version 11 (Dolphin Imaging & Management Solutions, Chatsworth, Calif.). Fusion was defined as the bilateral presence of bridging bone between the L4 and L5 transverse processes. The reconstructed images were judged to be fused or not fused by two experienced independent observers. […]

[1] = 5 μg rhBMP-2, at sacrifice (8 weeks)

For “BMP2: Recombinant human bone morphogenetic protein-2”, the “bilateral bridging trabecular bone, micro-CT” value (5 μg rhBMP-2) was “all animals”, the “bilateral fusion by manual assessment” value (5 μg rhBMP-2, after sacrifice) was “all animals” and the “Fusion Rates (%) Manual Palpation” value [1] was 100%. The “Fusion Rates (%) Micro-CT” value [1] was 100%, the “Fusion Rates (%) X-ray” value [1] was 100% and the fusion on radiographs (5 μg rhBMP-2, eight weeks) was “all animals”. The “bilateral fusion on radiographs” value (5 μg rhBMP-2, four weeks after operation) was 8/8, the “size of the fusion mass compared to 20 mg or 2 mg of Oxy133 (histology)” value (BMP2 5 μg) was “increased” and the “formation of adipocytes within the fusion mass (histology, visual inspection)” value (BMP2 5 μg vs Oxy133 treated groups, 8 weeks) was “robust formation of adipocytes; also recorded: significant adipocyte formation”. For the same substance, the “Fusion Mass Bone Volume” value (BMP2 5 μg, micro-CT, 8 weeks) was 20.126 mm^3, the “Fusion Mass Bone Volume to Tissue Volume” value (BMP2 5 μg, micro-CT, 8 weeks) was 19.633* % and the “Fusion Mass Total Tissue Volume” value (BMP2 5 μg, micro-CT, 8 weeks) was 106.909* mm^3. The “Fusion Mass Trabecular Separation” value (BMP2 5 μg, micro-CT, 8 weeks) was 446.126* μm, the “trabecular thickness” value (BMP2 5 μg, micro-CT, 8 weeks) was 131.131 and the “bone formation in fusion mass (histological assessment)” value (BMP2 5 μg, Oxy133 2 or 20 mg, 8 weeks) was “formation of trabecular bone within the fusion mass and continuous cortical bone”.

Entries after “also recorded” stand apart in the source; their conditions may differ. Marks after values point to notes of the source that are not given here.
